For this test, the target named is T1, CD123 on the surface of CHO-K1 cells (UniProt P26951 19-378).
T1 construct: whole, on cells; Negative control cells that express CD123 but not CD22; also called CHOK1-CD123; cell surface CD123
T1 sequence (looked up): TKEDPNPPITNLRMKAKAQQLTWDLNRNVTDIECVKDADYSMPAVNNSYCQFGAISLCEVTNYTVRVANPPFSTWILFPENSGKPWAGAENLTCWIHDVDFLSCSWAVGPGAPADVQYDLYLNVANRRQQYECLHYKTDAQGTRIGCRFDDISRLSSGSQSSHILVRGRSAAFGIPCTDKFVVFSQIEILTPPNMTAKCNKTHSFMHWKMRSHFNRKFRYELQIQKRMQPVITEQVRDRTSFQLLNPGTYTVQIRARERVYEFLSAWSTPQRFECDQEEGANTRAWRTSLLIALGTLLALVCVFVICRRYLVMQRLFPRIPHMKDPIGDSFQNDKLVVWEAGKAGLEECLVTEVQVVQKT
Nature of the test: FACS on CHO-K1 cells expressing CD123, anti-hFc Alexa 488.

In general, EC50 refers to the concentration at which the effect is half-maximal. Higher therefore signals a less potent agent.

B1: CSL362 (anti-CD123) (antibody, V domains shown)
VH: EVQLVQSGAEVKKPGESLKISCKGSGYSFTDYYMKWARQMPGKGLEWMGDIIPSNGATFYNQKFKGQVTISADKSISTTYLQWSSLKASDTAMYYCARSHLLRASWFAYWGQGTMVTVSS
VL: DIVMTQSPDSLAVSLGERATINCESSQSLLNSGNQKNYLTWYQQKPGQPPKPLIYWASTRESGVPDRFSGSGSGTDFTLTISSLQAEDVAVYYCQNDYSYPYTFGQGTKLEIKR
As to B1, the 50% effective concentration (EC50) is 17 pM.

(Values after patent US20220298257A1 (ELPIS BIOPHARMACEUTICALS, published 2022).)
